Biological target: T1, human PD-L2 (#10292-H08H, SinoBiological) (human, UniProt Q9BQ51)
T1 sequence: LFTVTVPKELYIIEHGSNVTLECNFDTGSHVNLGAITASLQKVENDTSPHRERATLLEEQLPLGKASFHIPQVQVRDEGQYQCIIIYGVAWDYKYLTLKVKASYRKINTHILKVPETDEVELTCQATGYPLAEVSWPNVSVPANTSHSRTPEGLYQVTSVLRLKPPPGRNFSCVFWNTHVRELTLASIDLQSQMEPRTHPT
Experiment: SPR

binding result: binds
B1: sPD-1 WT Fc (Fc fusion)
chain: LDSPDRPWNPPTFSPALLVVTEGDNATFTCSFSNTSESFVLNWYRMSPSNQTDKLAAFPEDRSQPGQDCRFRVTQLPNGRDFHMSVVRARRNDSGTYLCGAISLAPKAQIKESLRAELRVTERRAEVPTAHPSPSPRPAGQFQTLV
